Values of other authors as cited in patent US9669014B2, “Small molecule inhibitors of superoxide dismutase expression” (Northwestern University, priority 2014, dated 2017).

System: CDK5, CDK2, CDK1, CDK4
Details: cited from earlier work

O=C1NC(=O)C(c2cn(CCCO)c3ncccc23)=C1c1cnccn1
Comments: other kinases inhibited: Also inhibits CDK4
